Results taken from the C3SDB collision cross section collection.

What was measured:
[1] = [M+H]+; instrument: TW; calibrated with polyalanine and drug standards
[2] = [M]+; instrument: DT; stepped-field

| collision cross section (N2) [1] | SMILES | collision cross section (N2) [2] |
| --- | --- | --- |
| 135.2 Å² | COc1c2ccccc2nc2occc12 [DICTAMNINE] |  |
|  | CCC[N+](CCC)(CCC)CCC [TAA3] | 144 Å² |
